Experimental findings from publication PMC11494886, “Discovery and design of molecular glue enhancers of CDK12–DDB1 interactions for targeted degradation of cyclin K” (RSC Chemical Biology, 2024) are described below.

The chains behind the UniProt entries cited, without tags or fusion partners.
UniProt Q9NYV4, whole entry: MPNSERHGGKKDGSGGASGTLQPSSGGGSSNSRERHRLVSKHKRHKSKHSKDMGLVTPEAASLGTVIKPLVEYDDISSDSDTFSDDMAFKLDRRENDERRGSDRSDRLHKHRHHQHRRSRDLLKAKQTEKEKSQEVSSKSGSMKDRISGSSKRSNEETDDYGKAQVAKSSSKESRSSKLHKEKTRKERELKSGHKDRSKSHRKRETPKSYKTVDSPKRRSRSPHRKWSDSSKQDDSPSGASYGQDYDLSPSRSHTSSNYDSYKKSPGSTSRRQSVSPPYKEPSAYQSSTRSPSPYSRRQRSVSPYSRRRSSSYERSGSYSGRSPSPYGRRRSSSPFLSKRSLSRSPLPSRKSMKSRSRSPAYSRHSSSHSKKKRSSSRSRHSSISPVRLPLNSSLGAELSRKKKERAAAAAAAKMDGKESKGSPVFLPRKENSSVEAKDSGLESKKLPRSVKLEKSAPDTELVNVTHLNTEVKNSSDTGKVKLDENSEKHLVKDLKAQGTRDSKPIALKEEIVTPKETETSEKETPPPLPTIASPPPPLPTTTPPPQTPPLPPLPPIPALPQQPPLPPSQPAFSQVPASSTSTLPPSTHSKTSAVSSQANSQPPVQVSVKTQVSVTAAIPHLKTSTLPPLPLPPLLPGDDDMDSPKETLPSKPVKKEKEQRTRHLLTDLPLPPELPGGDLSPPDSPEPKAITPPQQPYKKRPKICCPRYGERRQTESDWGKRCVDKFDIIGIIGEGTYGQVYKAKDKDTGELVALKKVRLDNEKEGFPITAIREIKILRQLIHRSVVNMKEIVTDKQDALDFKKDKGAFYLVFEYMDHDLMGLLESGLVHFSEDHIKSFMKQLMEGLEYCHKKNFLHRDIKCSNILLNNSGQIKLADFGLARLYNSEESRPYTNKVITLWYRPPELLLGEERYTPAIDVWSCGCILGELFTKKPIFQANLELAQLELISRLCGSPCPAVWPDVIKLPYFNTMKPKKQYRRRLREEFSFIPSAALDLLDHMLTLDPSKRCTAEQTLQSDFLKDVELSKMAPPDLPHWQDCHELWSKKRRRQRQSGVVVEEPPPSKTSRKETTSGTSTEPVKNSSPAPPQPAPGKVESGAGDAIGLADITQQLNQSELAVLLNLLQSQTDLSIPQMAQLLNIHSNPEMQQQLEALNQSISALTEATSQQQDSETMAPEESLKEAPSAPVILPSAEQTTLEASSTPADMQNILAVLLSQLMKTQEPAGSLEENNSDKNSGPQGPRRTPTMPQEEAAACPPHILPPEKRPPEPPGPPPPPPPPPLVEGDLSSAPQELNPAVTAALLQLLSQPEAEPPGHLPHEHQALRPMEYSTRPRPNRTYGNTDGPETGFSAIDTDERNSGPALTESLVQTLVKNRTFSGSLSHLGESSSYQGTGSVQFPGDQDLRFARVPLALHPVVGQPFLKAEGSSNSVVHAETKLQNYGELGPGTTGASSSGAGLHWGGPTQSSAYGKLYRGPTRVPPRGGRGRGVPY
UniProt O75909, whole entry partner: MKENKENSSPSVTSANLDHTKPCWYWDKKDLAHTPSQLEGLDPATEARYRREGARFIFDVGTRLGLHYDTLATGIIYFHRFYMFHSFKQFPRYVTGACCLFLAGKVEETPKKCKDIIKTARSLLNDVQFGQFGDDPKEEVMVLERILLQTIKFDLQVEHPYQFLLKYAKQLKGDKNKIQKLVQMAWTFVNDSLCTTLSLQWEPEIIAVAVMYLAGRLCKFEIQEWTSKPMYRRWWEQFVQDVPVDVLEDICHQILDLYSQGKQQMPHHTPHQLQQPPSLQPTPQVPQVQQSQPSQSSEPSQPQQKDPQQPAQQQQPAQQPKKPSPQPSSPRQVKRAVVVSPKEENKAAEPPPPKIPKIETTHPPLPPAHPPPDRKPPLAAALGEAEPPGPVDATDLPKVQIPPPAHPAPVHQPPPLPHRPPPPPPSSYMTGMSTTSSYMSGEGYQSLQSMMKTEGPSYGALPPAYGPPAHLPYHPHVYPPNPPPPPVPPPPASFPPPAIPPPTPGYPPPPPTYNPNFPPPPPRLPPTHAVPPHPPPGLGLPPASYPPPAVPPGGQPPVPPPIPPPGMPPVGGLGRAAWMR

One assay deals with MDA-MB231. Put plainly: MDA-MB231 growth inhibition (GI50). Format: cell-based, human. The following applies: read-out: MDA-MB231 GI50.
In a further assay the target is CDK12 (Homo sapiens, UniProt Q9NYV4). Put plainly: CDK12 functional (kinase inhibition) assay. It counts as biochemical. The note with it: read-out: CDK12 IC50.
The test system of a further assay is HiBiT-tagged cyclin K. Put plainly: HiBiT cyclin K degradation assay (DC50, Dmax). The note with it: read-out: CCNK DC50; cell-based assay. In general terms: HiBiT is a short tag that completes a luciferase, so light tracks the accessible tagged protein.

With `Cn1cc(-n2cnc3c(NCc4ccc(-c5ccccn5)cc4)nc(N4CCOCC4)nc32)cn1`, the GI50 (usually the concentration at which growth is held to half of that of the control) with MDA-MB231 is 5.8 µM. In addition, at CDK12, the IC50 – broadly, the concentration that gives 50% inhibition – is 2.6 µM. The 50% degradation concentration (DC50) (usually the midpoint of the concentration-degradation curve) in the assay on HiBiT-tagged cyclin K was over 5 µM.
